In one assay the target is MAP4K1 (HPK1) (Homo sapiens, UniProt Q92918). As to the kind of experiment: Inhibition of MAP4K1 biochemical enzymatic activity (EZReader 2 electrophoretic mobility shift). The settings on record: read-out: MAP4K1 IC50; HPK1 (Invitrogen), S6K2tide 1.5 μM, 120 min; ATP 26 μM or 1000 μM, not stated which for Table 3. An excerpt:
MAP4K1 (HPK1) and relevant off-target enzymatic activity was monitored using the Perkin Elmer electrophoretic mobility shift technology platform—the EZReader 2. […] Within the linear, steady-state phase of the kinase enzymatic reaction, the mixed pool of phosphorylated (product) and non-phosphorylated (substrate) peptides was passed through the microfluidic system of the PerkinElmer EZ Reader 2, under an applied electric potential difference. The presence of the phosphate group on the product peptide provided a difference in mass and charge between that of the substrate peptide, resulting in a separation of the substrate and product pools in the sample (Perrin et al. 2010). As the product and substrate peptide mixture passes the lasers within the instrument, these pools are detected (λex=488 nm, λem=568 nm) and resolved as separate peaks. The ratio between these peaks reflects the activity of the compound at that concentration, in that well, under those conditions.
Inhibitors were dissolved in 100% DMSO at a stock concentration of 10 mM. A 100×, 10-point, 4-fold serial dilution of each inhibitor was created in 100% DMSO either manually or on a Hamilton STAR liquid handler, starting at a relevant concentration, usually 1 mM. A volume of 0.130 μL of each concentration was transferred to the relevant wells of a 384-well plate (Greiner 781 201) in duplicate using a TTPLabtech Mosquito nano-litre dispenser. Using a Multidrop Combi, the remaining constituents of the kinase reaction were added to the 130 nL of dosed compound as follows (see table below for final reaction details):
Enzyme activity assays at the ^APPKM for ATP or 1 mM ATP: In each well of a 384-well plate, 0.1-15 nM of untreated enzyme was incubated in a total of 13 μL of buffer (100 mM HEPES pH 7.5, 0.015% Brij 35, 10 mM MgCl2, 1 mM DTT) with 1.5 μM fluorescent peptide and 20-1000 μM ATP, at 25° C., for 60-180 minutes in the presence or absence of a dosed concentration series of compound (1% DMSO final concentration). The kinase reactions were stopped by the addition of 70 μl of Stop buffer (100 mM HEPES pH 7.5, 0.015% Brij 35, 35 mM EDTA and 0.2% of Coating Reagent 3 (Caliper Lifesciences)). The plates were read on a Caliper EZReader 2 as described above.
On the technique in general: In EMSA bound probe runs differently from free probe, usually more slowly.

Protein sequences, listed by entry. Tags and fused reporters are not part of them.
UniProt Q92918, whole entry: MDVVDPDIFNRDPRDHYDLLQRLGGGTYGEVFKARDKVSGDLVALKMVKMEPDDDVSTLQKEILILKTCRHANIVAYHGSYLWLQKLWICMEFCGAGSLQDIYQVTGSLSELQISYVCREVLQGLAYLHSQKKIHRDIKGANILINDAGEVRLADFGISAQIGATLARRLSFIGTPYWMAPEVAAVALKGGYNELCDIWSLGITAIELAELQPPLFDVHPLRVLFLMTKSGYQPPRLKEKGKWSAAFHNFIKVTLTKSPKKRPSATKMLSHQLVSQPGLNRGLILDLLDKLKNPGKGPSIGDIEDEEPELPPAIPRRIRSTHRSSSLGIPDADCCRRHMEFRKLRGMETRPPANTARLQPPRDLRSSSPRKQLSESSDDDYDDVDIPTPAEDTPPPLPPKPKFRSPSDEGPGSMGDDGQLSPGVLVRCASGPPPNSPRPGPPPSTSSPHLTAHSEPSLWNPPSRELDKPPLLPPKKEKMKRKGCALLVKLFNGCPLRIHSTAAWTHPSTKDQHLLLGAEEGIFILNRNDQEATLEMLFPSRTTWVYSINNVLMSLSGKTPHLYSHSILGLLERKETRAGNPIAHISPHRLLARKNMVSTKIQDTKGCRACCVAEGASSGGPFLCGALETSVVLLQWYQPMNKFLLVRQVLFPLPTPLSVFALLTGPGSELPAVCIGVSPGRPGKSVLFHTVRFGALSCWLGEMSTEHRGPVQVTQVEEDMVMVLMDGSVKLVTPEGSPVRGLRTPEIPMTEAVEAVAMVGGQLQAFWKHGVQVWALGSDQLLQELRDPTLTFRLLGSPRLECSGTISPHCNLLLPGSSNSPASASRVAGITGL

Assay [1] relates to Primary T Cell (expanded CD3+ T cells). Kind of assay: T cell enhancement of cytokines: IL2 measurement (HTRF) in expanded CD3+ T cells stimulated with anti-CD3/anti-CD28. The settings on record: read-out: IL-2 Primary T Cell EC50; plate-bound anti-CD3 and soluble anti-CD28, 24 h. The procedure: T cells are isolated from whole blood of healthy donors by immunomagnetic negative selection following manufacture's protocol (StemCell Technologies, human T cell isolation kit). Purity of isolated cells is assessed by flow cytometry and yields 95-98% CD3^+ T cells. For expansion of T cells, 1×10^6 cells/well are plated in serum free cell expansion media (ThermoFisher) containing 30U of recombinant human IL2 (R&D) and stimulated with 25 ul of CD3/CD28 beads (Invitrogen) in 24 well plates for 3-4 days. T cells are then expanded in 175 cm flasks and maintained at a cell density of 1 to 2.5×10^6 cells/ml days by addition of ⅔ of fresh media every 2-3 days. After 10-14 days, cells are frozen in BamBanker freezing media (Thermo) and stored in liquid nitrogen.
For IL2 measurement, expanded CD3^+ T cells are dispensed at 100K cells/well (cultured in X-VIVO 10 Serum-free media) and are stimulated with plate-bound anti-CD3 and soluble anti-CD28 in the presence of vehicle or compound of the disclosure at various concentrations for 24 h. As outlined in the manufacturer's protocol (Cisbio), 16 μL of conditioned media is transferred to a white 384-well low volume plate. Following a 24 h incubation with the anti-IL2 antibodies, the homogenous time resolved fluorescence (HTRF) is measured.

The IC50 is the midpoint of a concentration-inhibition curve. A word on the EC50: it is the concentration at which the effect is half-maximal. With `C[C@@H]1c2nc(Nc3cc4c(C(C)(O)C5CC5)cnc(OC5CC5)c4cn3)ccc2C(=O)OC1(C)C` (single isomer, unassigned) [39], the IC50 on MAP4K1 (HPK1) was determined as 0.46 nM. Also, the EC50 in assay [1] came out at 47 nM. For `C[C@@H]1c2nc(Nc3cc4c(C(C)(O)C5CC5)cnc(OCC(F)F)c4cn3)ccc2C(=O)OC1(C)C` (single isomer, unassigned) [48], the half-inhibitory concentration (IC50) at MAP4K1 (HPK1) turned out to be 39.5 nM. With `CCC(C)(O)c1cnc(OC)c2cnc(Nc3ccc4c(n3)[C@@H](C)C(C)(C)OC4=O)cc12` (single isomer, unassigned) [17], in assay [1], the concentration giving a half-maximal response (EC50) came to 10 nM. In the case of `CCC(C)(O)c1cnc(OC)c2cnc(Nc3ccc4c(n3)[C@@H](C)C(C)(C)OC4=O)cc12` (single isomer, unassigned) [16], the IC50 at MAP4K1 (HPK1) was 0.61 nM.

On to `COCC(O)c1cnc(OC)c2cnc(Nc3ccc4c(n3)[C@@H](C)C(C)(C)OC4=O)cc12` (single isomer, unassigned) [19], for which the half-inhibitory concentration (IC50) on MAP4K1 (HPK1) amounted to 14.3 nM. Regarding `C[C@@H]1c2nc(Nc3cc4c(C(C)(O)C5CC5)cnc(OCC(F)F)c4cn3)ccc2C(=O)OC1(C)C` (single isomer, unassigned) [49], the IC50 at MAP4K1 (HPK1) came to 0.53 nM. `C[C@@H]1OC(=O)c2ccc(Nc3cc4c(C(C)(O)C5CC5)cnc(OC5CC5)c4cn3)nc2[C@H]1C` (single isomer, unassigned) [26]: the IC50 at MAP4K1 (HPK1) is 1.06 nM.

With `C[C@@H]1c2nc(Nc3cc4c(C(C)(O)C5CC5)cnc(OC5CC5)c4cn3)ccc2C(=O)OC1(C)C` (single isomer, unassigned) [38], the IC50 at MAP4K1 (HPK1) came to 11.1 nM. The 50% effective concentration (EC50) in assay [1] turned out to be 273 nM.
